Measured values published in ChEMBL document CHEMBL4828761, “Development and crystallography-aided SAR studies of multifunctional BuChE inhibitors and 5-HT6R antagonists with β-amyloid anti-aggregation properties” (Eur J Med Chem, 2021).

Amino acid sequences for entries named in this document (tags omitted).
UniProt P06276, whole entry: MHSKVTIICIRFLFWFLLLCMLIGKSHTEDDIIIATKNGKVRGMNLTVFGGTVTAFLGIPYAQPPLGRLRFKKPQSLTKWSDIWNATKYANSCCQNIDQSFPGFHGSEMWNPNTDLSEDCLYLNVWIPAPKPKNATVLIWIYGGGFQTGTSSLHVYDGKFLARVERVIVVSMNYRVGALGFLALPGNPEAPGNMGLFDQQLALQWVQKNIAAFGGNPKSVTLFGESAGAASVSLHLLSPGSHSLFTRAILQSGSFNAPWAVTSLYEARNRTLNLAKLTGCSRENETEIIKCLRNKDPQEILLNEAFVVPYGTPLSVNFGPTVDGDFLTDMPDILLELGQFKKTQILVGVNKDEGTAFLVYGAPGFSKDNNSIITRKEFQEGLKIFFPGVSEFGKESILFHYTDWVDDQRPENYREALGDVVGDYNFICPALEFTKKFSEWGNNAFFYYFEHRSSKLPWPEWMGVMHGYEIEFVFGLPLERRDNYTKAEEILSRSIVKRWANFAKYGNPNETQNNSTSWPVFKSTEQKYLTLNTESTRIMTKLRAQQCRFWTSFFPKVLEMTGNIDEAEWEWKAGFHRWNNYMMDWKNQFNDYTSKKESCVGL
UniProt P05067, whole entry: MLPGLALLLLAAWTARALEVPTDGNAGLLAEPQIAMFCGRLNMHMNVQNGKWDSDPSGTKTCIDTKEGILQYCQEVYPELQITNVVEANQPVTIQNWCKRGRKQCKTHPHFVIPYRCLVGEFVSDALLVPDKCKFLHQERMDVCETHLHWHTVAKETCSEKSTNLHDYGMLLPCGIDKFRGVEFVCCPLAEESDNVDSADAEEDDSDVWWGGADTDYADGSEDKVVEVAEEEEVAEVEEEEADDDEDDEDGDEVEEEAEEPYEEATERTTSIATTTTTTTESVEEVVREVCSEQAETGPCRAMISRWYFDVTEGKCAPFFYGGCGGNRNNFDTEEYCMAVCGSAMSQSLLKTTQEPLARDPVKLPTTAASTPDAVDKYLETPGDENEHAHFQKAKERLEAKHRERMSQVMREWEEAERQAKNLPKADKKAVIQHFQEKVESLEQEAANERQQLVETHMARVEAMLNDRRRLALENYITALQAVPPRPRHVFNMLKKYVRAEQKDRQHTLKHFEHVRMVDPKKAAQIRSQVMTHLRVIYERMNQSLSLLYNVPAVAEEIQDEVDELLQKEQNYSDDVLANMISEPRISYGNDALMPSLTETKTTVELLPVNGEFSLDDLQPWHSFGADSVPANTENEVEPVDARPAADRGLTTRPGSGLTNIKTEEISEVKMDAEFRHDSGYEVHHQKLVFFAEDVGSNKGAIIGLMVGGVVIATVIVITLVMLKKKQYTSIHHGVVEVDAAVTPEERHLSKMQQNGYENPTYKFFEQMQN
UniProt P81908, whole entry: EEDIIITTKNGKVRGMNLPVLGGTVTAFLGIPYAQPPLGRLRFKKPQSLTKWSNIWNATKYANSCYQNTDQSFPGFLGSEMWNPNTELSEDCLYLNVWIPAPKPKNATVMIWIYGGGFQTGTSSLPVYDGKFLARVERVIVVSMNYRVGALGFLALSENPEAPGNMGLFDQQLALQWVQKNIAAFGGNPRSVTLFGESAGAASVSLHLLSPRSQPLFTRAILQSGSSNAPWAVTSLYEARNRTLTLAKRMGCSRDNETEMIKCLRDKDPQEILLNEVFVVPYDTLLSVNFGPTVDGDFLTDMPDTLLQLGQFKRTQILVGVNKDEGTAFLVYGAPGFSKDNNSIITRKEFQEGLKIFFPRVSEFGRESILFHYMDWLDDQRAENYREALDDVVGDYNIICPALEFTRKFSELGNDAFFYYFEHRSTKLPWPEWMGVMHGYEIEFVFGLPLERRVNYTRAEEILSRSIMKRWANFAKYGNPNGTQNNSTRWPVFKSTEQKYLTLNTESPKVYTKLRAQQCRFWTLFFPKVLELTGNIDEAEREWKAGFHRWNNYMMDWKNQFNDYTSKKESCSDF

Columns and labels:
Cholinesterase = Cholinesterase (Homo sapiens, UniProt P06276); assay: Inhibition of BuChE in human plasma using BTC as substrate at 10 uM preincubated with enzyme for 5 mins followed by substrate addition for 5 mins by Ellman's method relative to control; format: cell-free; details: time 10.0 min
[1] = target: Amyloid-beta precursor protein (Homo sapiens) (UniProt P05067); assay: Inhibition of amyloid beta (1 to 42) (unknown origin) self aggregation at 10 uM incubated for 24 to 48 hrs by Thioflavin-T based fluorometric assay; details: time 24-48 hrs
[2] = target: Cholinesterase (Equus caballus) (UniProt P81908); assay: Reversible inhibition of equine serum BuChE using BTC as substrate at 10XIC50 preincubated with 100-fold diluted enzyme for 120 mins followed by substrate addition and measured after 5 mins by 100-fold dilution assay; format: cell-free; details: time 125.0 min

Row | SMILES | inhibition (Cholinesterase) | inhibition [1] | inhibition [2]
1 | O=S(=O)(c1ccccc1)n1ccc2c(OCCNCc3cc(Cl)cc(Cl)c3)cccc21 | < 50% | < 20% | 
2 | O=S(=O)(c1ccccc1)n1ccc2c(OCCNCC3CCCC3)cccc21 | > 50% | < 20% | 
3 | O=S(=O)(c1cccc2ccccc12)n1ccc2c(OCCNCc3ccccc3)cccc21 | < 50% | 20.5% | 
4 | O=S(=O)(c1ccccc1)n1ccc2c(OCCNCc3ccccc3Cl)cccc21 | > 50% | < 20% | 
5 | CC(=O)Oc1cccc(CNCCOc2cccc3c2ccn3S(=O)(=O)c2ccccc2)c1 | > 50% | < 20% | 
6 | CC(=O)Oc1ccc(CNCCOc2cccc3c2ccn3S(=O)(=O)c2ccccc2)cc1 | > 50% | < 20% | 
7 | O=S(=O)(c1ccccc1)n1ccc2c(OCCNCC3CCCCC3)cccc21 | > 50% | 53.5% | 
8 | CC(C)(C)OC(=O)N1CCCC(CNCCOc2cccc3c2ccn3S(=O)(=O)c2cccc3ccccc23)C1 (stereo not drawn) | > 50% | < 20% | Active
9 | O=S(=O)(c1ccccc1)N1CCc2c(OCCNCc3ccccc3)cccc21 | < 50% | < 20% | 
10 | CC(C)(C)OC(=O)N1CCCC(CNCCOc2cccc3c2CCN3S(=O)(=O)c2ccccc2)C1 (stereo not drawn) | > 50% | < 20% | 
11 | O=S(=O)(c1ccccc1)n1ccc2c(OCCNCc3ccccc3)cccc21 | > 50% | 45.9% | 
12 | CC(C)(C)OC(=O)N1CCCC(CNCCOc2cccc3c2ccn3S(=O)(=O)c2ccccc2)C1 (stereo not drawn) | > 50% | 59.2% | Active
13 | Cc1cccc(CNCCOc2cccc3c2ccn3S(=O)(=O)c2ccccc2)c1 | > 50% | 33.3% | 

Calls of active or inactive are those of the source. The rule behind the calls is not given here.
